The source of these data is article PMC4838890, “Dynamic and flexible H3K9me3 bridging via HP1β dimerization establishes a plastic state of condensed chromatin” (Nature Communications, 2016).

The test concerns H3K9me3 oligonucleosomes. Description: Chromatin sedimentation (clustering), H3K9me3 oligonucleosomes. Type of test: biochemical, Xenopus laevis. Particulars: mixed H3K9me0/H3K9me3 octamers, hHP1β WT at saturating concentration, 150 mM NaCl. How it is done: Figure 3 hHP1β clusters oligonuclesomal arrays in dependence of H3K9me3. (a) Oligonucleosomes (2.5 nM) were incubated with increasing concentrations of hHP1β WT or I161A at 150 mM NaCl. DNA remaining in the supernatant after centrifugation was incubated with EtBr and measured by fluorescence reading. Data were normalized to amounts in absence of added protein. Averages of three independent experiments are plotted; error bars represent s.d.; n=3. (b) Analysis of the hydrodynamic radius of oligonucleosomes (10 nM; DNA labelled with ATTO 610) in the presence of increasing concentrations of hHP1β WT or I161A by FCS at 150 mM NaCl. For details on experimental setup see Supplementary Fig. 3. Error bars represent s.d.; n=3. (c) Oligonucleosomes were reconstituted after mixing H3K9me0 and H3K9me3 octamers at different ratio. […] (d) Precipitation behaviour of oligonucleosomes (2.5 nM) was analysed at different concentrations of NaCl with hHP1β WT at saturating concentration. […] Precipitated material was analysed by western blotting. […] Complexes were fixed with 0.05% (v/v) glutaraldehyde, spotted on mica surfaces and analysed by scanning force microscopy. […] (h) Quantification of results representatively shown in g according to the classification on the top: A, extended; B, partially condensed; C, fully condensed; D; aggregates; n>50 for each condition. […]

In the case of “hHP1β WT: recombinant human heterochromatin protein 1β (GenBank NM_001127228), 185 aa”, the “H3K9me3 content required for efficient chromatin clustering” value is reported as “more than 50%”.
